Measurements: publication PMC11822712, “Improving the Activity and Selectivity of a Scorpion-Derived Peptide, A3a, against Acinetobacter baumannii through Rational Design” (ACS Omega, 2025)
In brackets after ≈: the same amount, converted by molar mass.

Legend:
E. cloacae ATCC 700323 = conditions: cation-adjusted MHB, OD600
P. aeruginosa ATCC 27853 = conditions: cation-adjusted MHB, OD600
A. baumannii ATCC 19606 = conditions: same test as μg/mL value; cation-adjusted MHB, 20 h, OD600
HaCat cells = experiment: Cytotoxicity against mammalian cells, MTT assay; format: cell-based; conditions: 256 μg/mL, 24 h
Method: HaCat cells were purchased from ECACC and were cultured in Dulbecco’s modified Eagle’s medium (DMEM) supplemented with 10% heat-inactivated fetal calf serum (FCS) and 1% antibiotic–antimycotic (DMEM/FCS). To determine the initial cytotoxicity of all peptides, HaCat cells were plated at 5.56 × 10^4 cells/mL (90 μL) in a 96-well plate. After an overnight incubation at 5% CO2, 37 °C, and 95% humidity, for initial screening peptide at a final concentration of 256 μg/mL (10 μL) were added triplicate wells. […] The positive control was 0.1% Triton-X100. After 24 h, cell viability was determined with the 3-(4,5-dimethyl-2-thiazolyl)-2,5-diphenyl-2H-tetrazolium bromide (MTT) assay. A volume of 10 μL of a 1 mg/mL MTT was added to each well. After 3 h incubation, the medium was discarded, and the plate was rinsed and dried before the formazan crystals were dissolved by adding 25% DMSO in ethanol. The cell viability was determined by measuring the absorbance at OD595. The percentage cell viability was calculated relative to that of the untreated control. […] This was calculated from a sigmoidal curve of cell growth (%) over log10(peptide concentration).

[1] = tested on: K. pneumoniae ATCC BAA-1705; format: cell-based, Klebsiella pneumoniae; conditions: cation-adjusted MHB, OD600
E. coli ATCC 25922 = conditions: same test as μg/mL value; cation-adjusted MHB, 20 h, OD600
[2] = tested on: S. aureus (MSSA) ATCC 25923; conditions: same test as μg/mL value; cation-adjusted MHB, 20 h, OD600
[3] = approx. 1 × 10^6 CFU/mL added 1:1, 20 h, MIC = lowest concentration with growth <0.1 above background, > = no activity at highest concentration tested

Structure (SMILES) | MIC (E. cloacae ATCC 700323; [3]) [µg/mL] | MIC (P. aeruginosa ATCC 27853; [3]) [µg/mL] | MIC (value in brackets) (A. baumannii ATCC 19606) [µM] | cytotoxicity in initial screening (HaCat cells) | MIC [1, 3] [µg/mL] | MIC (value in brackets) (E. coli ATCC 25922) [µM] | MIC (value in brackets) [2] [µM] | MIC (value in brackets) (E. cloacae ATCC 700323; same test as μg/mL value, 20 h) [µM] | MIC (value in brackets) (P. aeruginosa ATCC 27853; same test as μg/mL value, 20 h) [µM] | MIC (value in brackets) ([1]; same test as μg/mL value, 20 h) [µM]
CC[C@H](C)[C@H](NC(=O)[C@H](C)NC(=O)[C@H](CCCCN)NC(=O)[C@H](CCCCN)NC(=O)[C@@H](NC(=O)[C@H](CC(C)C)NC(=O)[C@H](CO)NC(=O)[C@H](Cc1ccccc1)NC(=O)[C@H](CC(C)C)NC(=O)[C@@H](N)Cc1ccccc1)[C@@H](C)CC)C(=O)NCC(=O)NCC(=O)N[C@@H](CC(C)C)C(=O)N[C@H](C(=O)N[C@@H](CO)C(=O)N[C@@H](C)C(=O)N[C@@H](Cc1ccccc1)C(=O)N[C@@H](CCCCN)C(N)=O)[C@@H](C)CC [A3a[R7K]] | >128 | >128 | 8 (≈ 15.6 µg/mL) | cytotoxicity was observed | >128 | 65 (≈ 127 µg/mL) | 4 (≈ 7.81 µg/mL) | – | – | –
CC[C@H](C)[C@H](NC(=O)[C@H](C)NC(=O)[C@H](CCCCN)NC(=O)[C@H](CCCNC(=N)N)NC(=O)[C@@H](NC(=O)[C@H](CC(C)C)NC(=O)[C@H](CO)NC(=O)[C@H](Cc1ccccc1)NC(=O)[C@H](CC(C)C)NC(=O)[C@@H](N)Cc1ccccc1)[C@@H](C)CC)C(=O)NCC(=O)NCC(=O)N[C@@H](CC(C)C)C(=O)N[C@H](C(=O)N[C@@H](CO)C(=O)N[C@@H](C)C(=O)N[C@@H](Cc1ccccc1)C(=O)N[C@@H](CCCCN)C(N)=O)[C@@H](C)CC [A3a] | – | – | 16 (≈ 31.7 µg/mL) | cytotoxicity was observed | – | – | 4 (≈ 7.92 µg/mL) | – | – | –
CC[C@H](C)[C@H](NC(=O)[C@H](C)NC(=O)[C@H](CCCCN)NC(=O)[C@H](CCCNC(=N)N)NC(=O)[C@@H](NC(=O)[C@H](CC(C)C)NC(=O)[C@H](CO)NC(=O)[C@H](Cc1ccccc1)NC(=O)[C@H](CC(C)C)NC(=O)[C@@H](N)Cc1ccccc1)[C@@H](C)CC)C(=O)NCC(=O)NCC(=O)N[C@@H](CC(C)C)C(=O)N[C@@H](Cc1c[nH]c2ccccc12)C(=O)N[C@@H](CO)C(=O)N[C@@H](C)C(=O)N[C@@H](Cc1ccccc1)C(=O)N[C@@H](CCCCN)C(N)=O [A3a[I14W]] | – | – | 4 (≈ 8.21 µg/mL) | cytotoxicity was observed | – | 16 (≈ 32.9 µg/mL) | 2 (≈ 4.11 µg/mL) | 62 (≈ 127 µg/mL) | 62 (≈ 127 µg/mL) | 62 (≈ 127 µg/mL)
